Source: article PMC2766802 (Analytical biochemistry, 2009)

By UniProt entry, the sequences of proteins in these tests, tags left out. Where a name states a change or a piece, a line headed by the entry shows the natural chain unless it says otherwise.
UniProt Q12809: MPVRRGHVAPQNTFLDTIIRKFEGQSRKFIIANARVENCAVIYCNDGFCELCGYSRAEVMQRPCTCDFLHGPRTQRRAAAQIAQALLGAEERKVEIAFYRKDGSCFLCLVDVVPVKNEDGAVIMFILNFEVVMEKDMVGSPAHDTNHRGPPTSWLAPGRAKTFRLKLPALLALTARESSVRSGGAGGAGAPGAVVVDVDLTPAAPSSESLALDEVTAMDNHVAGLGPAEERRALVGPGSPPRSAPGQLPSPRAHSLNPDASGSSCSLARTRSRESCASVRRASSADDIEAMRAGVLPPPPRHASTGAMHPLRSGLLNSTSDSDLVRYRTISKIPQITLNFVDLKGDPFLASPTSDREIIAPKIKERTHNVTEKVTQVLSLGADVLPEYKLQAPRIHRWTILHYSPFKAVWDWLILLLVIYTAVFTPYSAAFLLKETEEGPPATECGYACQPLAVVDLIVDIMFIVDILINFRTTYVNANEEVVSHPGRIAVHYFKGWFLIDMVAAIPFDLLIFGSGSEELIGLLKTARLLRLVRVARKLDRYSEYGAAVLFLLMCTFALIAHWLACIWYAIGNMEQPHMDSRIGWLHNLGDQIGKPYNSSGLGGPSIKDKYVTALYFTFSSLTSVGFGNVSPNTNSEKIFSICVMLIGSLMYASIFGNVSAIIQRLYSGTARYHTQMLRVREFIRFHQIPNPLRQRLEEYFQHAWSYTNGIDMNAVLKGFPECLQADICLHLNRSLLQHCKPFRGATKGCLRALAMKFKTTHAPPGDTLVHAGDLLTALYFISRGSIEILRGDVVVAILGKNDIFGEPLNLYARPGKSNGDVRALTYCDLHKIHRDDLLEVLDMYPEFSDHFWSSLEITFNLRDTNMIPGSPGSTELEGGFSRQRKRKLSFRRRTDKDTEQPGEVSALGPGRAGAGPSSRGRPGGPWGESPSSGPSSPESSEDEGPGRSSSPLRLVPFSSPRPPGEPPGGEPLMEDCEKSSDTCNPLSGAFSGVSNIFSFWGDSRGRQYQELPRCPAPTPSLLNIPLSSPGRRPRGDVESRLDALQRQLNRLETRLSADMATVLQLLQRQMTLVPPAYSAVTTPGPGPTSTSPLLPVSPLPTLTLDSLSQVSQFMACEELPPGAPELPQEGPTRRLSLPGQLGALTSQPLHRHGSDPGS

Target: hERG channel (Homo sapiens, UniProt Q12809)
Details: LOPAC 1280 library qHTS, titration series, hERG-expressing U-2 OS cells

Fc1ccc(C(OCCN2CCN(CCCc3ccccc3)CC2)c2ccc(F)cc2)cc1 [GBR-12909 dihydrochloride]
IC50: 220 nM

Where a name gives a salt, the structure may show the parent alone.
